One data set has as its system EA.hy926 cells. The conditions noted are these: EA.hy926, 48 h.
The mark [1] stands for this setting: read-out: IC50 (proliferation / cytotoxicity), molar equivalent, 48 h, conversion of 500 μg/ml.

Regarding “tetrameric cyclic compound of 4,5-dihydroxynaphthalene-2, 7, disulfonic acid linked by methylene bridges [ST104P]”, the “IC50 (proliferation / cytotoxicity)” value was > 500 µg/mL in the data set with BAEC (48 h, crystal violet); > 500 µg/mL with EA.hy926 cells (crystal violet); > 500 µg/mL in the data set on 3T3 cells (48 h, crystal violet). In addition, the IC50 is > 350 µM in the data set on BAEC (setting [1]); > 350 µM in the data set with EA.hy926 cells (read-out: IC50 (proliferation / cytotoxicity), molar equivalent, conversion of 500 μg/ml); > 350 µM in the data set on 3T3 cells (setting [1]).

These data come from US7709538B2, “ST104P, an anti-angiogenic agent” (Sagittarius Life Science Corp., priority 2004, dated 2010).
